Reference: PubChem BioAssay AID1527 (The Scripps Research Institute Molecular Screening Center, 2009)
The entries are a selection whose mix differs from that of the whole data set. The source made the active and inactive calls.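 How the source made its calls: active means inhibition above the mean of all tested compounds plus 3 SD, cutoff set per screening run (cut at about 7.5% in these data); inactive means the rest.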

These molecules were tested on VIM-2 metallo-beta-lactamase (Pseudomonas aeruginosa) (assay: VIM-2 metallo-beta-lactamase inhibitors, primary screen, biochemical, epi-absorbance readout, Pseudomonas aeruginosa enzyme (AID 1527;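 further: red hydrolysis product quenches plate fluorescence so inhibitors raise well fluorescence; 0% = enzyme with DMSO and 100% = DMSO without enzyme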)). Settings: purified VIM-2, nitrocefin hydrolysis, epi-absorbance fluorescence; at 5.6 µM; stronger effect = higher value.
With `CCOC(=O)c1ccc(NP(C)(=O)Oc2ccc(OC)cc2)cc1` (centres undefined) the inhibition was inactive: -0.29%.
For `CCOP(C)(=S)SCC(=O)NC(C)C(=O)O` (centres undefined), the inhibition was inactive: -1.4%.
In the case of `CP(=O)(Nc1ccccn1)Oc1ccc(Cl)cc1` (centres undefined), the inhibition was inactive: -2.23%.
`CP(=O)(Oc1ccccc1)OC(c1ccccc1)C(F)(F)F` (centres undefined) was tested, and the inhibition was inactive: -1.85%.
For `Cc1cccc(C)c1OP(C)(=O)Nc1ccc(SC(F)(F)F)cc1` (centres undefined), the inhibition was inactive: -1.22%.
With `CP(=O)(Nc1ccc(SC(F)(F)F)cc1)Oc1ccc(Cl)cc1` (centres undefined) the inhibition was inactive: -4.61%.
In the case of `Cc1cc(C)cc(OP(C)(=O)Nc2ccc(SC(F)(F)F)cc2)c1` (centres undefined), the inhibition was inactive: -2.26%.
In the case of `CCc1ccc(OP(C)(=O)N2CCN(c3ccc([N+](=O)[O-])cc3)CC2)cc1` (centres undefined), the inhibition was inactive: -2.37%.
In the case of `CP(=O)(NC(=O)Nc1ccccc1)Oc1ccccc1` (centres undefined), the inhibition was inactive: -0.41%.
In the case of `CP(=S)(Nn1cnnc1)Oc1ccccc1` (centres undefined), the inhibition was inactive: -3.41%.
In the case of `CP(=O)(Nc1ccccc1Br)Oc1ccccc1` (centres undefined), the inhibition was inactive: -2.77%.
With `COc1ccccc1OP(C)(=O)Nc1ccccc1` (centres undefined) the inhibition was inactive: -2.55%.
In the case of `Cc1ccc(NP(C)(=O)Oc2ccccc2)c(C)c1` (centres undefined), the inhibition was inactive: -3.28%.
In the case of `COc1ccccc1OP(C)(=O)Nc1ccc(C)cc1` (centres undefined), the inhibition was inactive: -1.01%.
For `CCOC(=O)c1ccc(NP(C)(=O)Oc2ccccc2)cc1` (centres undefined), the inhibition was inactive: -1.49%.
`Cc1cc(C)cc(OP(C)(N)=O)c1` (centres undefined) was tested, and the inhibition was inactive: -1.99%.
With `COc1ccc(OP(C)(=O)Nc2cccc(F)c2)cc1` (centres undefined) the inhibition was inactive: -5.11%.
In the case of `COc1ccccc1OP(C)(=O)Nc1cc(Cl)ccc1C` (centres undefined), the inhibition was inactive: -0.33%.
For `O=[N+]([O-])c1ccc2c(c1)C=Nc1ccccc1O2`, the inhibition was inactive: 0.68%.
`Cc1cccc(C)c1OP(C)(N)=O` (centres undefined) was tested, and the inhibition was inactive: 0.42%.
`CC(C)(C)c1ccc(OP(C)(=O)Nc2ccc(SC(F)(F)F)cc2)cc1` (centres undefined) was tested, and the inhibition was inactive: -1.85%.
`CCN(CC)CCCOC(=O)C(O)(c1ccccc1)c1ccccc1` was tested, and the inhibition was inactive: -1.91%.
With `Cc1ccc(C)c(NP(C)(=O)Oc2ccccc2)c1` (centres undefined) the inhibition was inactive: -3.45%.
For `CP(=O)(Nc1cccc(Br)c1)Oc1ccccc1` (centres undefined), the inhibition was inactive: -4.5%.
For `Cc1cc(C)cc(OP(C)(=O)Nc2ccccn2)c1` (centres undefined), the inhibition was inactive: -0.44%.
For `COc1ccccc1OP(C)(=O)Nc1cccc(Br)c1` (centres undefined), the inhibition was inactive: -2.29%.
For `CCOC(=O)c1ccc(NP(C)(=O)Oc2cc(C)cc(C)c2)cc1` (centres undefined), the inhibition was inactive: -0.09%.
For `Cc1cc(C)cc(OP(C)(=O)Nc2ccc(C)cc2C)c1` (centres undefined), the inhibition was inactive: -4.11%.
`CC1=NCCc2c1[nH]c1ccccc21.O=[N+]([O-])c1cc([N+](=O)[O-])c(O)c([N+](=O)[O-])c1` was tested, and the inhibition was inactive: -1.11%.
`O=C(O)c1cccc(Nc2c([N+](=O)[O-])cc([N+](=O)[O-])cc2[N+](=O)[O-])c1` was tested, and the inhibition was inactive: 4.51%.
`COc1ccccc1OP(C)(=O)Nc1c(C)cccc1C` (centres undefined) was tested, and the inhibition was inactive: -1.87%.
With `CN1CCCCC1COC(=O)C1(O)c2ccccc2CCc2ccccc21` (centres undefined) the inhibition was inactive: -1.57%.
For `CP(=O)(Nc1ccc(SC(F)(F)F)cc1)Oc1ccccc1` (centres undefined), the inhibition was inactive: -1.5%.
With `CCCOc1ccc(NP(C)(=O)Oc2ccc(Cl)cc2)cc1` (centres undefined) the inhibition was inactive: -0.17%.
For `CCOC(=O)C(CC)C1=NC(C)(C)Cc2ccccc21.O=[N+]([O-])c1cc([N+](=O)[O-])c(O)c([N+](=O)[O-])c1` (centres undefined), the inhibition was inactive: -2.4%.
For `O=[N+]([O-])c1cc([N+](=O)[O-])c(Nc2nnnn2CCO)c([N+](=O)[O-])c1`, the inhibition was inactive: -1.91%.
`Cc1nc2ccc3ccccc3c2s1.O=[N+]([O-])c1cc([N+](=O)[O-])c(O)c([N+](=O)[O-])c1` was tested, and the inhibition was inactive: -0.06%.
`O=[N+]([O-])c1cc([N+](=O)[O-])c(-n2nnc3ccccc32)c([N+](=O)[O-])c1` was tested, and the inhibition was inactive: -2.44%.
For `CP(=O)(Nc1ccc2c(c1)OCCO2)Oc1ccccc1` (centres undefined), the inhibition was inactive: -0.89%.
For `Cc1ccccc1NP(C)(=O)Nc1ccccc1C`, the inhibition was inactive: -3.36%.
`CP(=O)(Nc1ccc(SC(F)(F)F)cc1)Oc1ccc(F)cc1` (centres undefined) was tested, and the inhibition was inactive: -0.14%.
`CCOP(C)(=S)SCC(=O)NC(C)(CC)C(=O)O` (centres undefined) was tested, and the inhibition was inactive: -3.46%.
For `O=[N+]([O-])c1ccc(OP2(=O)COCCO2)cc1` (centres undefined), the inhibition was inactive: -2.8%.
For `Cc1cc(-c2cccc3ccccc23)c(C)cn1.O=[N+]([O-])c1cc([N+](=O)[O-])c(O)c([N+](=O)[O-])c1`, the inhibition was inactive: -2.22%.
For `O=[N+]([O-])c1cc([N+](=O)[O-])c(NCC2CCS(=O)(=O)C2)c([N+](=O)[O-])c1` (centres undefined), the inhibition was inactive: -1.79%.
`COc1ccc(OP(C)(=O)Nc2cccc(Br)c2)cc1` (centres undefined) was tested, and the inhibition was inactive: -0.73%.
`CN(C)CCOC(=O)C(O)(c1ccccc1)C1CCCCC1` (centres undefined) was tested, and the inhibition was inactive: -3.08%.
`COc1ccc(NP(C)(=O)Oc2ccccc2OC)cc1` (centres undefined) was tested, and the inhibition was inactive: -2.27%.
For `CCN(CC)CCCOC(=O)C(O)(c1ccccc1)C1CCCCC1` (centres undefined), the inhibition was inactive: -3.43%.
In the case of `CP(=O)(Nc1ccccc1)Oc1ccc(F)cc1` (centres undefined), the inhibition was inactive: 0.44%.
In the case of `CCCCCOc1ccc(NP(C)(=O)Oc2ccc(Cl)cc2Cl)cc1` (centres undefined), the inhibition was inactive: 0.57%.
With `O=[N+]([O-])c1cc([N+](=O)[O-])c(OC2CCCCC2O)c([N+](=O)[O-])c1` (centres undefined) the inhibition was inactive: -2.96%.
`CCOC(=O)c1ccc(NP(C)(=O)Oc2ccc(F)cc2)cc1` (centres undefined) was tested, and the inhibition was inactive: -4.29%.
For `COc1ccc(OP(C)(=O)Nc2ccc(SC(F)(F)F)cc2)cc1` (centres undefined), the inhibition was inactive: 0.3%.
In the case of `O=C(OC1CN2CCC1CC2)c1ccc([N+](=O)[O-])cc1` (centres undefined), the inhibition was inactive: -2.45%.
In the case of `O=C(OCCN1CCN(CCOCc2ccccc2)CC1)C(O)(c1ccccc1)c1ccccc1`, the inhibition was inactive: -0.05%.
For `CP(=O)(Nc1ccccc1F)Oc1ccccc1` (centres undefined), the inhibition was inactive: -0.6%.
In the case of `CC(C)c1ccc(OP(C)(=O)Nc2ccc(SC(F)(F)F)cc2)cc1` (centres undefined), the inhibition was inactive: -0.42%.
For `O=[N+]([O-])c1cc([N+](=O)[O-])c(Nc2ccccn2)c([N+](=O)[O-])c1`, the inhibition was inactive: -1.04%.
For `Cc1c(NP(C)(=O)Oc2ccc(C(C)C)cc2)c(=O)n(-c2ccccc2)n1C` (centres undefined), the inhibition was inactive: -0.6%.
In the case of `COc1ccccc1OP(C)(=O)Nc1ccc(C)cc1C` (centres undefined), the inhibition was inactive: -0.69%.
In the case of `CP(=O)(Nc1ccccn1)Oc1ccccc1` (centres undefined), the inhibition was inactive: -2.21%.
In the case of `CCc1ccc(OP(C)(=O)O)cc1`, the inhibition was inactive: -2.34%.
In the case of `COc1ccccc1OP(C)(=O)Nc1ccc(Br)cc1` (centres undefined), the inhibition was inactive: -2.46%.
In the case of `COc1ccc(OP(C)(=O)Nc2ccccn2)cc1` (centres undefined), the inhibition was inactive: -3.93%.
With `CN(C)CCOC(=O)C(O)(c1ccccc1)C1CCCC1` (centres undefined) the inhibition was inactive: -0.66%.
With `Cc1nc2ccc3ccccc3c2o1.O=[N+]([O-])c1cc([N+](=O)[O-])c(O)c([N+](=O)[O-])c1` the inhibition was inactive: 0.76%.
`CP(=O)(OCCOc1ccccc1)OCCOc1ccccc1` was tested, and the inhibition was inactive: -1.73%.
In the case of `CP(=O)(Nc1ccc(Cl)cc1Cl)Oc1ccccc1` (centres undefined), the inhibition was inactive: -4.06%.
With `Cc1cc(C)cc(OP(C)(=O)Nc2cccc(C(F)(F)F)c2)c1` (centres undefined) the inhibition was inactive: -5.97%.
For `COc1ccccc1OP(C)(=O)Nc1ccc(C)c(C)c1` (centres undefined), the inhibition was inactive: 0.03%.
With `COc1ccc(OP(C)(=O)Nc2ccccc2Br)cc1` (centres undefined) the inhibition was inactive: -1.12%.
With `CCOC(=O)c1ccc(NP(C)(=O)Oc2ccc(Cl)cc2)cc1` (centres undefined) the inhibition was inactive: 0.62%.
In the case of `CP(=O)(OC12CC3CC(CC(C3)C1)C2)OC12CC3CC(CC(C3)C1)C2`, the inhibition was inactive: -2%.
In the case of `CC(C)(C)c1ccc(OP(C)(=O)O)cc1`, the inhibition was inactive: -3.06%.
In the case of `COc1ccccc1OP(C)(=O)Nc1ccccc1Br` (centres undefined), the inhibition was inactive: 2.59%.
In the case of `CP(=O)(Nc1ccc(Cl)cc1)Oc1ccc(F)cc1` (centres undefined), the inhibition was inactive: -1.29%.
`CN(C)C(=O)c1c([N+](=O)[O-])cc([N+](=O)[O-])cc1[N+](=O)[O-]` was tested, and the inhibition was inactive: -4.49%.
`COc1ccc(OP(C)(=O)Nc2ccc(Br)cc2)cc1` (centres undefined) was tested, and the inhibition was inactive: -2.23%.
With `CCN(CC)CC(O)COC(=O)C(O)(c1ccccc1)C1CCCCC1` (centres undefined) the inhibition was inactive: -0.85%.
In the case of `O=C(OCCCN1CCCC1)C(O)(c1ccccc1)C1CCCCC1` (centres undefined), the inhibition was inactive: -0.47%.
In the case of `COc1ccccc1OP(C)(=O)Nc1c(C)n(C)n(-c2ccccc2)c1=O` (centres undefined), the inhibition was inactive: -0.56%.
With `CCc1ccc(OP(C)(=O)Nc2cccnc2)cc1` (centres undefined) the inhibition was inactive: 1.2%.
In the case of `CP(=O)(Oc1ccccc1)N1CCOC1=O` (centres undefined), the inhibition was inactive: -0.91%.
